Data as given in patent publication EP4837910A1, “ISOXAZOLINE COMPOUND AND PREPARATION METHOD THEREFOR, HERBICIDAL COMPOSITION, AND USE” (dated 2026).

Columns and labels:
[1] = test system: Monocotyledonous and dicotyledonous weed; test: Pre-emergence test on weeds (greenhouse, sprayed immediately after sowing); conditions: after 4 weeks in greenhouse, fresh weight control rate
[2] = test system: Zea mays; test: Pre-emergence test, crop damage (greenhouse, sprayed immediately after sowing); conditions: after 4 weeks in greenhouse, fresh weight control rate
Source text: Monocotyledonous and dicotyledonous weed seeds as well as major crop seeds were placed in plastic pots filled with soil and then covered with 0.5-2 cm of soil. The test compounds of the present invention were individually dissolved with acetone, then added with Tween® 80, diluted with certain amount of water to obtain solutions of certain concentrations, and sprayed immediately after sowing. After drug application, the experimental results on weeds were observed after 4 weeks of cultivation in a greenhouse. Table 3 Results of pre-emergence test on weeds

| Structure (SMILES) | activity level of plant damage (growth control rate), Descurainia sophia ([1]; Dosage 240 g a.i./ha) | activity level of plant damage (growth control rate), Digitaria sanguinalis ([1]; Dosage 240 g a.i./ha) | activity level of plant damage (growth control rate), Lolium multiflorum ([1]; Dosage 240 g a.i./ha) | activity level of plant damage (growth control rate), Setaria viridis ([1]; Dosage 240 g a.i./ha) | activity level of plant damage (growth control rate), Zea mays ([2]; Dosage 240 g a.i./ha) | activity level of plant damage (growth control rate), Digitaria sanguinalis ([1]; Dosage 250 g a.i./ha) | activity level of plant damage (growth control rate), Setaria viridis ([1]; Dosage 250 g a.i./ha) | activity level of plant damage (growth control rate), Zea mays ([2]; Dosage 250 g a.i./ha) |
| --- | --- | --- | --- | --- | --- | --- | --- | --- |
| C=C[C@]1(C(=O)N[C@@H](C)C(=O)N(C)OC)CC(c2cc(Cl)cc(OC(F)(F)F)c2)=NO1 | 6 (Level 6: growth control rate greater than or equal to 70% and less than 80%) | 9 | 9 | 9 | 1 (Level 1: growth control rate less than 10%) | – | – | – |
| C=C[C@]1(C(=O)N[C@@H](Cc2ccc([N+](=O)[O-])cc2)C(=O)N(C)OC)CC(c2cc(F)cc(F)c2)=NO1 | – | – | 5 (Level 5: growth control rate greater than or equal to 50% and less than 70%) | – | 0 | – | – | – |
| CCN(OC)C(=O)[C@H](C)NC(=O)[C@@]1(CC)CC(c2cc(F)cc(F)c2)=NO1 | – | 8 (Level 8: growth control rate greater than or equal to 90% and less than 100%) | 7 (Level 7: growth control rate greater than or equal to 80% and less than 90%) | 9 | 2 (Level 2: growth control rate greater than or equal to 10% and less than 20%) | – | – | – |
| C=C[C@]1(C(=O)N[C@@H](C)C(=O)N(C)OC)CC(c2cc(F)cc(OC(F)(F)F)c2)=NO1 | 9 | 8 (Level 8: growth control rate greater than or equal to 90% and less than 100%) | 9 | 9 | 0 | – | – | – |
| CON(C)C(=O)[C@H](C)NC(=O)C1(OC)CC(c2cc(F)cc(F)c2)=NO1 (stereo partly shown) | – | 8 (Level 8: growth control rate greater than or equal to 90% and less than 100%) | – | – | 0 | – | – | – |
| C=C[C@]1(C(=O)N[C@@H](C)C(=O)N(CSC)OC)CC(c2cc(F)cc(F)c2)=NO1 | – | 6 (Level 6: growth control rate greater than or equal to 70% and less than 80%) | 9 | – | 0 | – | – | – |
| C=C[C@@]1(C(=O)N[C@@H](C)C(=O)N(CC)OC)CC(c2cc(F)cc(F)c2)=NO1 | 5 (Level 5: growth control rate greater than or equal to 50% and less than 70%) | – | – | 5 (Level 5: growth control rate greater than or equal to 50% and less than 70%) | 0 | – | – | – |
| C=CC1(C(=O)N[C@@H](C)C(=O)NOCC)CC(c2cc(F)cc(F)c2)=NO1 (stereo partly shown) | 8 (Level 8: growth control rate greater than or equal to 90% and less than 100%) | – | 5 (Level 5: growth control rate greater than or equal to 50% and less than 70%) | – | 0 | – | – | – |
| C=C[C@]1(C(=O)N[C@@H](CC#N)C(=O)N(C)OC)CC(c2cc(F)cc(F)c2)=NO1 | – | – | 9 | – | 1 (Level 1: growth control rate less than 10%) | – | – | – |
| C=CC1(C(=O)N[C@@H](C)C(=O)NOC(C)C)CC(c2cc(F)cc(F)c2)=NO1 (stereo partly shown) | – | 6 (Level 6: growth control rate greater than or equal to 70% and less than 80%) | 9 | 8 (Level 8: growth control rate greater than or equal to 90% and less than 100%) | 0 | – | – | – |
| C=C[C@]1(C(=O)NC(C(=O)N(C)OC)C2CC2)CC(c2cc(F)cc(F)c2)=NO1 (stereo partly shown) | – | 6 (Level 6: growth control rate greater than or equal to 70% and less than 80%) | 8 (Level 8: growth control rate greater than or equal to 90% and less than 100%) | 6 (Level 6: growth control rate greater than or equal to 70% and less than 80%) | 0 | – | – | – |
| C=C[C@]1(C(=O)N[C@@H](C)C(=O)NOCC)CC(c2cc(F)cc(F)c2)=NO1 | 7 (Level 7: growth control rate greater than or equal to 80% and less than 90%) | – | 9 | – | 0 | – | – | – |
| C=C[C@@]1(C(=O)N[C@@H](CCCCN)C(=O)N(C)OC)CC(c2cc(F)cc(F)c2)=NO1 | – | 5 (Level 5: growth control rate greater than or equal to 50% and less than 70%) | – | – | 1 (Level 1: growth control rate less than 10%) | – | – | – |
| C=C[C@]1(C(=O)N[C@@H](C)C(=O)N(C)O)CC(c2cc(F)cc(F)c2)=NO1 | 9 | 9 | 9 | 9 | 1 (Level 1: growth control rate less than 10%) | – | – | – |
| CON(C)C(=O)[C@@H](C)NC(=O)C1(C(F)(F)F)CC(c2cc(F)cc(F)c2)=NO1 (stereo partly shown) | – | 9 | 6 (Level 6: growth control rate greater than or equal to 70% and less than 80%) | 9 | 2 (Level 2: growth control rate greater than or equal to 10% and less than 20%) | – | – | – |
| C=C[C@]1(C(=O)N[C@@H](C)C(=O)N(C)OC)CC(c2ccc(F)c(F)c2)=NO1 | – | – | 9 | – | 0 | – | – | – |
| C=CC1(C(=O)N[C@H](C)C(=O)N(C)OC)CC(c2cc(F)cc(F)c2)=NO1 (stereo partly shown) | – | – | – | – | – | 9 | 9 | 0 |
| C=C[C@]1(C(=O)N[C@@H](C)C(=O)N(C)OC)CC(c2cc(Cl)cc(C(F)(F)F)c2)=NO1 | – | 9 | 9 | 9 | 1 (Level 1: growth control rate less than 10%) | – | – | – |
| C=CC1(C(=O)O[C@H](C)C(=O)N(C)OC)CC(c2cc(F)cc(F)c2)=NO1 (stereo partly shown) | – | – | 9 | 5 (Level 5: growth control rate greater than or equal to 50% and less than 70%) | 0 | – | – | – |
| C=CC1(C(=O)N[C@@H](C)C(=O)N(C)OC)CC(c2cc(F)cc(S(C)(=O)=O)c2)=NO1 (stereo partly shown) | 6 (Level 6: growth control rate greater than or equal to 70% and less than 80%) | – | – | 5 (Level 5: growth control rate greater than or equal to 50% and less than 70%) | 0 | – | – | – |
| C=CC1(C(=O)N[C@H](C)C(=O)NOC)CC(c2cc(F)cc(F)c2)=NO1 (stereo partly shown) | – | – | 8 (Level 8: growth control rate greater than or equal to 90% and less than 100%) | – | 0 | – | – | – |
| C=C(C)[C@]1(C(=O)N[C@@H](C)C(=O)N(C)OC)CC(c2cc(Cl)cc(Cl)c2)=NO1 | – | 9 | 9 | 9 | 1 (Level 1: growth control rate less than 10%) | – | – | – |
| C=C[C@]1(C(=O)N[C@@H](CCC)C(=O)N(C)OC)CC(c2cc(F)cc(F)c2)=NO1 | – | 9 | 8 (Level 8: growth control rate greater than or equal to 90% and less than 100%) | 9 | 2 (Level 2: growth control rate greater than or equal to 10% and less than 20%) | – | – | – |
| CC[C@]1(C(=O)N[C@@H](C)C(=O)N(C)OC)CC(c2cc(Br)cc(Br)c2)=NO1 | – | 9 | 9 | 9 | 0 | – | – | – |
| C=C[C@]1(C(=O)N[C@@H](C)C(=O)NOCC(=O)OC)CC(c2cc(F)cc(F)c2)=NO1 | 9 | – | 9 | – | 0 | – | – | – |
| C=C[C@]1(C(=O)N[C@@H](C)C(=O)N(OC)C(=O)OC)CC(c2cc(F)cc(F)c2)=NO1 | 9 | – | 9 | – | 0 | – | – | – |
| CC[C@@]1(C(=O)N[C@@H](C)C(=O)NOC)CC(c2cc(Cl)cc(Cl)c2)=NO1 | – | – | 9 | – | 2 (Level 2: growth control rate greater than or equal to 10% and less than 20%) | – | – | – |
| C=C[C@]1(C(=O)N[C@@H](C)C(=O)NOC)CC(c2cc(F)cc(C(F)(F)F)c2)=NO1 | 9 | – | 9 | – | 2 (Level 2: growth control rate greater than or equal to 10% and less than 20%) | – | – | – |
